This assay concerns the target deleted in colorectal cancer (DCC). The assay is described as follows: cell-based or functional assay.

“Purified mouse netrin-1 (from UniProt O09118 25-604) (ligand)”: the ERK1/2 phosphorylation in BAECs, 15 minutes (Western blot densitometry) was 2.52 fold; the eNOSs1179 phosphorylation in BAECs, 30 minutes (Western blot densitometry) was determined as 1.7 fold; the eNOSs1179 phosphorylation in BAECs, 60 minutes (Western blot densitometry) is 1.88 fold.

(Values after patent US20170210780A1.)
